Where two headings read alike, the source gives them in different places.
Test: Water solubility in 100 g of water at 25° C., visual evaluation after 24 hours
Excerpt: The term “solubility” used herein in regard to water solubility includes cases where the sample completely dissolves in deionized water to form a homogeneous mixture, and cases where the sample is completely emulsified. Here, “completely” means that no mass of the sample remains in the deionized water.

[1] = in 100 g of water at 25° C., after 24 hours

Dodecanoic acid (C12) monoester of butylene glycol [COMPOL BL]
Water solubility [1]: <0.05 g

Isopropyl citrate
Water solubility: 20< g

Octadecanoic acid (C18) monoester of butylene glycol [COMPOL BS]
Water solubility [1]: <0.05 g
